Measurements as given in US20260382772A1, “KETO-AMIDE-BASED FIBROBLAST ACTIVATION PROTEIN-TARGETED LIGAND LINKED TO AN IMAGING OR THERAPEUTIC AGENT, COMPOSITIONS, AND METHODS OF USE” (published 2026).

Test system: 4T1 tumor bearing mice
Assay: Dosimetry analysis using OLINDA software, 4T1 tumor
Conditions: ^177Lu
Method: From the ex vivo biodistribution data obtained from the ^111In/^177Lu-FAP8-PEG3-IP-DOTA in 4T1 and HEK-FAP tumor bearing mice, the total absorbed radiation dose coefficients (mGy/MBq were calculated using OLINDA 2.2.3 software (Tables 9-12).
FIGS. 36A and 36B show comparison data related to the total absorbed dose coefficient in selected organs (blood, heart, lungs, liver, spleen, kidney's bone marrow, and tumor). Dose estimates for healthy organs such as blood, heart, lungs, liver, spleen, kidneys, and bone marrow were calculated assuming a 25 g mouse phantom, whereas for tumor dose estimates were calculated with the sphere model. Time-activity curves were fitted to the biodistribution data of each organ individually with exponential functions.

Question: How did the “Kinetics value, Blood” value (0.3 nmol/mouse) turn out when COc1ccc(CNC(=O)C(=O)[C@@H]2CC(F)(F)CN2C(=O)CNC(=O)c2ccnc3ccc(OCC(=O)NCCOCCOCCOCCNC(=O)[C@H](CCCCNC(=O)CCCc4ccc(I)cc4)NC(=O)CN4CCN(CC(=O)O)CCN(CC(=O)O)CCN(CC(=O)O)CC4)cc23)cc1OC.[Lu+3] was run?
Answer: Its value is 4.48E−1 MBq-hr/MBq.

Question: What about the “Kinetics value, Bone Marrow” value (0.3 nmol/mouse) of the same molecule?
Answer: The value was 8.84E−02 MBq-hr/MBq.

Question: And the “Kinetics value, Heart” value (0.3 nmol/mouse)?
Answer: Its value is 5.62E−01 MBq-hr/MBq.

Question: What about the “Kinetics value, Intestines” value (0.3 nmol/mouse) of the same molecule?
Answer: The value was 1.76E−1 MBq-hr/MBq.

Question: What about the “Kinetics value, Kidneys” value (0.3 nmol/mouse) of the same molecule?
Answer: Its value is 1.22E0 MBq-hr/MBq.

Question: What about the “Kinetics value, Liver” value (0.3 nmol/mouse) of the same molecule?
Answer: The value was 5.77E0 MBq-hr/MBq.

Question: And the “Kinetics value, Lung” value (0.3 nmol/mouse)?
Answer: The value was 9.69E−1 MBq-hr/MBq.

Question: What about the “Kinetics value, Spleen” value (0.3 nmol/mouse) of the same molecule?
Answer: Its value is 9.20E+0 MBq-hr/MBq.

Question: What about the “Kinetics value, Stomach” value (0.3 nmol/mouse) of the same molecule?
Answer: Its value is 1.81E−1 MBq-hr/MBq.

Question: And the “Kinetics value, Tumor” value (0.3 nmol/mouse)?
Answer: Its value is 9.500E02 MBq-hr/MBq.

Question: And the “Organ doses, Blood” value (0.3 nmol/mouse)?
Answer: The value was 2.38E02 mGy/MBq.

Question: And the “Organ doses, Bone Marrow” value (0.3 nmol/mouse)?
Answer: The value was 3.382E02 mGy/MBq.

Question: And the “Organ doses, Heart” value (0.3 nmol/mouse)?
Answer: Its value is 4.14E02 mGy/MBq.

Question: What about the “Organ doses, Intestines” value (0.3 nmol/mouse) of the same molecule?
Answer: Its value is 9.23E01 mGy/MBq.

Question: What about the “Organ doses, Kidneys” value (0.3 nmol/mouse) of the same molecule?
Answer: The value was 3.57E02 mGy/MBq.

Question: And the “Organ doses, Liver” value (0.3 nmol/mouse)?
Answer: The value was 5.67E02 mGy/MBq.

Question: And the “Organ doses, Lung” value (0.3 nmol/mouse)?
Answer: Its value is 2.84E02 mGy/MBq.

Question: What about the “Organ doses, Spleen” value (0.3 nmol/mouse) of the same molecule?
Answer: Its value is 1.46E03 mGy/MBq.

Question: And the “Organ doses, Stomach” value (0.3 nmol/mouse)?
Answer: Its value is 8.58E01 mGy/MBq.

Question: What about the “Organ doses, Tumor” value (0.3 nmol/mouse) of the same molecule?
Answer: Its value is 9.04E02 mGy/MBq.

Question: What about the “Kinetics value, Blood” value (1.0 nmol/mouse) of the same molecule?
Answer: The value was 5.84E−1 MBq-hr/MBq.

Question: What about the “Kinetics value, Bone Marrow” value (1.0 nmol/mouse) of the same molecule?
Answer: Its value is 3.5E−02 MBq-hr/MBq.

Question: What about the “Kinetics value, Heart” value (1.0 nmol/mouse) of the same molecule?
Answer: Its value is 2.39E−1 MBq-hr/MBq.

Question: And the “Kinetics value, Intestines” value (1.0 nmol/mouse)?
Answer: The value was 2.22E−1 MBq-hr/MBq.

Question: What about the “Kinetics value, Kidneys” value (1.0 nmol/mouse) of the same molecule?
Answer: The value was 9.99E−01 MBq-hr/MBq.

Question: What about the “Kinetics value, Liver” value (1.0 nmol/mouse) of the same molecule?
Answer: The value was 8.19E0 MBq-hr/MBq.

Question: What about the “Kinetics value, Lung” value (1.0 nmol/mouse) of the same molecule?
Answer: The value was 5.16E−1 MBq-hr/MBq.

Question: What about the “Kinetics value, Spleen” value (1.0 nmol/mouse) of the same molecule?
Answer: Its value is 3.23E+0 MBq-hr/MBq.

Question: And the “Kinetics value, Stomach” value (1.0 nmol/mouse)?
Answer: Its value is 2.08E−1 MBq-hr/MBq.

Question: What about the “Kinetics value, Tumor” value (1.0 nmol/mouse) of the same molecule?
Answer: The value was 8.95E0 MBq-hr/MBq.

Question: What about the “Organ doses, Blood” value (1.0 nmol/mouse) of the same molecule?
Answer: The value was 2.95E02 mGy/MBq.

Question: And the “Organ doses, Bone Marrow” value (1.0 nmol/mouse)?
Answer: The value was 1.14E02 mGy/MBq.

Question: What about the “Organ doses, Heart” value (1.0 nmol/mouse) of the same molecule?
Answer: Its value is 1.76E02 mGy/MBq.

Question: And the “Organ doses, Intestines” value (1.0 nmol/mouse)?
Answer: Its value is 1.46E02 mGy/MBq.

Question: And the “Organ doses, Kidneys” value (1.0 nmol/mouse)?
Answer: The value was 2.94E02 mGy/MBq.

Question: And the “Organ doses, Liver” value (1.0 nmol/mouse)?
Answer: Its value is 8.90E02 mGy/MBq.

Question: And the “Organ doses, Lung” value (1.0 nmol/mouse)?
Answer: Its value is 1.36E02 mGy/MBq.

Question: And the “Organ doses, Spleen” value (1.0 nmol/mouse)?
Answer: The value was 4.13E02 mGy/MBq.

Question: What about the “Organ doses, Stomach” value (1.0 nmol/mouse) of the same molecule?
Answer: Its value is 6.44E−03 mGy/MBq.

Question: And the “Organ doses, Tumor” value (1.0 nmol/mouse)?
Answer: Its value is 9.94E02 mGy/MBq.

Question: And the “Kinetics value, Blood” value (5 nmol/mouse)?
Answer: Its value is 3.27E−01 MBq-h/MBq.

Question: And the “Kinetics value, Bone Marrow” value (5 nmol/mouse)?
Answer: Its value is 1.99E−02 MBq-h/MBq.

Question: And the “Kinetics value, Heart” value (5 nmol/mouse)?
Answer: The value was 6.34E−002 MBq-h/MBq.

Question: And the “Kinetics value, Intestines” value (5 nmol/mouse)?
Answer: The value was 1.83E−1 MBq-h/MBq.

Question: What about the “Kinetics value, Kidneys” value (5 nmol/mouse) of the same molecule?
Answer: Its value is 8.89E−01 MBq-h/MBq.

Question: What about the “Kinetics value, Liver” value (5 nmol/mouse) of the same molecule?
Answer: The value was 3.55E0 MBq-h/MBq.

Question: And the “Kinetics value, Lung” value (5 nmol/mouse)?
Answer: Its value is 2.93E−01 MBq-h/MBq.

Question: What about the “Kinetics value, Spleen” value (5 nmol/mouse) of the same molecule?
Answer: The value was 7.30E−1 MBq-h/MBq.

Question: And the “Kinetics value, Stomach” value (5 nmol/mouse)?
Answer: Its value is 1.38E−1 MBq-h/MBq.

Question: And the “Kinetics value, Tumor” value (5 nmol/mouse)?
Answer: The value was 6.43E0 MBq-h/MBq.

Question: And the “Organ doses, Blood” value (5 nmol/mouse)?
Answer: The value was 3.49E02 mGy/MBq.

Question: And the “Organ doses, Bone Marrow” value (5 nmol/mouse)?
Answer: The value was 4.81E01 mGy/MBq.

Question: And the “Organ doses, Heart” value (5 nmol/mouse)?
Answer: The value was 4.55E01 mGy/MBq.

Question: And the “Organ doses, Intestines” value (5 nmol/mouse)?
Answer: The value was 9.04E01 mGy/MBq.

Question: And the “Organ doses, Kidneys” value (5 nmol/mouse)?
Answer: The value was 2.43E02 mGy/MBq.

Question: And the “Organ doses, Liver” value (5 nmol/mouse)?
Answer: Its value is 2.70E02 mGy/MBq.

Question: And the “Organ doses, Lung” value (5 nmol/mouse)?
Answer: Its value is 8.15E01 mGy/MBq.

Question: What about the “Organ doses, Spleen” value (5 nmol/mouse) of the same molecule?
Answer: The value was 1.10E02 mGy/MBq.

Question: What about the “Organ doses, Stomach” value (5 nmol/mouse) of the same molecule?
Answer: Its value is 4.27E−03 mGy/MBq.

Question: What about the “Organ doses, Tumor” value (5 nmol/mouse) of the same molecule?
Answer: Its value is 1.14E03 mGy/MBq.
